From patent USRE46170E1, “Insulin derivatives” (Novo Nordisk A/S, priority 2005, dated 2016)

Assay: Hydrophobicity (hydrophobic index) relative to human insulin by isocratic RP-HPLC
Type: physicochemical
Settings: LiChrosorb RP18 column, isocratic elution at 40° C., sodium phosphate buffer pH 7.3/acetonitrile
Description: The elution was monitored by following the UV absorption of the eluate at 214 nm. Void time, t0, was found by injecting 0.1 mM sodium nitrate.

| Substance | k′rel |
| --- | --- |
| N^εB29-3-[4′-(2-Carboxyethyl)biphenyl-4-yl]propionyl-γ-L-glutamyl desB30 insulin [Example 17] | 0.276 |
| N^εB29—[N—(HOOC(CH2)14CO—N-(carboxethyl)-CH2-meta C6H4CO] desB30 human insulin [Example 6] | 1.63 |
| N^εB29—[N—HOOC(CH2)14CO)—N-(carboxyethyl)-CH2-para-C6H4CO] desB30 human insulin [Example 1] | 1.19 |
